Source: PubChem BioAssay (NCI)
Some of these compounds have results that are not shown, active ones among them.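 Test compounds were applied to cells in 96-well plates for 48 hours at 5 doses. TGI is the concentration that stops growth completely.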

What was measured:
Assay in all cases: inhibition of tumour cell growth, NCI panel, 48 h
OVCAR-3 ovarian = test system: OVCAR-3 ovarian
MOLT-4 leukemia = test system: MOLT-4 leukemia
UO-31 renal = test system: UO-31 renal
SF-268 CNS = test system: SF-268 CNS
SNB-19 CNS = test system: SNB-19 CNS
CCRF-CEM leukemia = test system: CCRF-CEM leukemia
HCC-2998 colon = test system: HCC-2998 colon
UACC-257 melanoma = test system: UACC-257 melanoma
SN12C renal = test system: SN12C renal
HCT-15 colon = test system: HCT-15 colon
TK-10 renal = test system: TK-10 renal
SNB-75 CNS = test system: SNB-75 CNS
HL-60(TB) leukemia = test system: HL-60(TB) leukemia
T-47D breast = test system: T-47D breast
OVCAR-5 ovarian = test system: OVCAR-5 ovarian
LOX IMVI melanoma = test system: LOX IMVI melanoma
PC-3 prostate = test system: PC-3 prostate
MALME-3M melanoma = test system: MALME-3M melanoma
MDA-MB-435 = test system: MDA-MB-435
KM12 colon = test system: KM12 colon
M14 melanoma = test system: M14 melanoma
SW-620 colon = test system: SW-620 colon
IGROV1 ovarian = test system: IGROV1 ovarian
MCF7 breast = test system: MCF7 breast
NCI-H23 lung = test system: NCI-H23 lung
SF-295 CNS = test system: SF-295 CNS
OVCAR-4 ovarian = test system: OVCAR-4 ovarian
HCT-116 colon = test system: HCT-116 colon
OVCAR-8 ovarian = test system: OVCAR-8 ovarian
A498 renal = test system: A498 renal
ACHN renal = test system: ACHN renal
U251 CNS = test system: U251 CNS
HS 578T breast = test system: HS 578T breast
HT29 colon = test system: HT29 colon
SK-OV-3 ovarian = test system: SK-OV-3 ovarian
RPMI-8226 leukemia = test system: RPMI-8226 leukemia
SK-MEL-28 melanoma = test system: SK-MEL-28 melanoma
HOP-62 NSCLC = test system: HOP-62 NSCLC
SK-MEL-2 melanoma = test system: SK-MEL-2 melanoma
NCI-H460 lung = test system: NCI-H460 lung
SK-MEL-5 melanoma = test system: SK-MEL-5 melanoma
UACC-62 melanoma = test system: UACC-62 melanoma
DU-145 prostate = test system: DU-145 prostate
NCI-H322M lung = test system: NCI-H322M lung
K-562 leukemia = test system: K-562 leukemia
MDA-N = test system: MDA-N
A549 NSCLC = test system: A549 NSCLC
MDA-MB-231 breast = test system: MDA-MB-231 breast
BT-549 breast = test system: BT-549 breast
RXF 393 renal = test system: RXF 393 renal
SR leukemia = test system: SR leukemia
NCI-H226 lung = test system: NCI-H226 lung
NCI-H522 lung = test system: NCI-H522 lung
NCI/ADR-RES ovarian = test system: NCI/ADR-RES ovarian
COLO 205 colon = test system: COLO 205 colon
786-0 renal = test system: 786-0 renal

Question: Which results are given for `O=C(OCCC1=C2CCN(CC2)C1)C(O)(c1ccccc1)C1CCCC1` (stereo unspecified)?
Answer: TGI (OVCAR-3 ovarian): > 100 µM; TGI (MOLT-4 leukemia): 86.5 µM; TGI (UO-31 renal): > 100 µM; TGI (SF-268 CNS): 29.9 µM; TGI (SNB-19 CNS): > 100 µM; TGI (CCRF-CEM leukemia): 33.7 µM; TGI (HCC-2998 colon): > 100 µM; TGI (UACC-257 melanoma): 55.2 µM; TGI (SN12C renal): > 100 µM; TGI (HCT-15 colon): > 100 µM; TGI (TK-10 renal): > 100 µM; TGI (SNB-75 CNS): 99.2 µM; TGI (HL-60(TB) leukemia): 56.3 µM; TGI (T-47D breast): 56.9 µM; TGI (OVCAR-5 ovarian): > 100 µM; TGI (LOX IMVI melanoma): > 100 µM; TGI (PC-3 prostate): > 100 µM; TGI (MALME-3M melanoma): 51.4 µM; TGI (MDA-MB-435): > 100 µM; TGI (KM12 colon): > 100 µM; TGI (M14 melanoma): 30.7 µM; TGI (SW-620 colon): 52.3 µM; TGI (IGROV1 ovarian): > 100 µM; TGI (MCF7 breast): 40.7 µM; TGI (NCI-H23 lung): > 100 µM; TGI (SF-295 CNS): 49.7 µM; TGI (OVCAR-4 ovarian): > 100 µM; TGI (HCT-116 colon): 70.8 µM; TGI (OVCAR-8 ovarian): > 100 µM; TGI (A498 renal): > 100 µM; TGI (ACHN renal): 62.1 µM; TGI (U251 CNS): > 100 µM; TGI (HS 578T breast): > 100 µM; TGI (HT29 colon): > 100 µM; TGI (SK-OV-3 ovarian): > 100 µM; TGI (RPMI-8226 leukemia): 61.8 µM; TGI (SK-MEL-28 melanoma): 50.2 µM; TGI (HOP-62 NSCLC): 59.2 µM; TGI (SK-MEL-2 melanoma): 55.3 µM; TGI (NCI-H460 lung): > 100 µM; TGI (SK-MEL-5 melanoma): 25 µM; TGI (UACC-62 melanoma): 35.9 µM; TGI (DU-145 prostate): > 100 µM; TGI (NCI-H322M lung): > 100 µM; TGI (K-562 leukemia): 13.3 µM; TGI (MDA-N): > 100 µM; TGI (A549 NSCLC): 72.6 µM; TGI (MDA-MB-231 breast): > 100 µM; TGI (BT-549 breast): > 100 µM; TGI (RXF 393 renal): 77.6 µM; TGI (SR leukemia): > 100 µM; TGI (NCI-H226 lung): > 100 µM; TGI (NCI-H522 lung): > 100 µM; TGI (NCI/ADR-RES ovarian): > 100 µM; TGI (COLO 205 colon): 37.7 µM; TGI (786-0 renal): 33 µM
